# US7070778B2, “Therapeutical combination against cancer” (Laboratoire Goemar SA, priority 2003, dated 2006)
# Tested on: BT-474 human breast carcinoma
# Test: Effect on the tumor growth: BT-474 human breast carcinoma xenograft in nude mice
# Format: in vivo
# Settings: for Average daily weight of the tumor: Group 2: Herceptin 0.5 mg/kg i.p. twice a week during 3 weeks
# Procedure: Female nude mice (nulnu) between 5 and 6 weeks of age weighing approximately 20 g were obtained from Harlan, Inc. (Madison, Wis.). The BT-474 human breast carcinoma cell line was obtained from the American Type Culture Collection (ATCC). BT-474 was established by E. Lasfargues and W. G. Coutinho from a solid carcinoma of the breast obtained from a patient (2). Twenty-one-day release 17β-estradiol pellets at 0.25 mg (Innovative Research of America) were implanted subcutaneously into each mouse. The following day, animals were implanted s.c. by trocar with fragments of human tumor carcinomas harvested from s.c. growing tumors in nude mice hosts. When the tumors were approximately 40 mg in size (24 days following inoculation), the animals were pair-matched into treatment and control groups. All of the groups contained 9 mice. All of the animals were ear-tagged and followed individually throughout the experiment.
# The mice of each group were administered intra peritoneally with 2 ml of the following composition:
# Group 1: (control) sterile H2O, 5 times a day
# Mice were weighed twice weekly, and tumor measurements were obtained using calipers twice weekly, starting on Day 1. These tumor measurements were converted to mg tumor weight by the standard formula, (W^2×L)/2 (2). The experiment was terminated when the control group tumor size reached an average of 500 mg. Upon termination (Day 46), the mice were weighed, sacrificed and their tumors were excised. The tumors were weighed, and the mean tumor weight per group was calculated.
# With this agent, the final weight of a given tumor was subtracted from its own weight at the start of treatment on Day 1. This difference was divided by the initial tumor weight to give the % regression. A mean % tumor regression was calculated from data from mice in a group that experienced tumor regressions.
substance,measurement,setting,value
Herceptin: monoclonal antibody manufactured by Genentech,effect on the growth of the tumor (in words),Herceptin 0.5 mg/kg,allows a limitation of the growth of the tumor
same,Average daily weight of the tumor,day 1,40.3 mg
same,Average daily weight of the tumor,day 5,60.0 mg
same,Average daily weight of the tumor,day 9,89.9 mg
same,Average daily weight of the tumor,day 12,110.9 mg
same,Average daily weight of the tumor,day 16,137.9 mg
same,Average daily weight of the tumor,day 19,204.6 mg
same,Average daily weight of the tumor,day 23,231.3 mg
same,Average daily weight of the tumor,day 26,272.8 mg
same,Average daily weight of the tumor,day 29,304.7 mg
same,Average daily weight of the tumor,day 32,346.0 mg
same,Average daily weight of the tumor,day 36,476.0 mg
same,Average daily weight of the tumor,day 39,489.8 mg
same,Average daily weight of the tumor,day 43,551.1 mg
same,Average daily weight of the tumor,day 46,727.9 mg
